Earlier results, collected in article PMC6421297, “Novel Mouse Tauopathy Model for Repetitive Mild Traumatic Brain Injury: Evaluation of Long-Term Effects on Cognition and Biomarker Levels After Therapeutic Inhibition of Tau Phosphorylation” (Frontiers in Neurology, 2019).

System: mice following TBI
Conditions: cited from earlier work

## CC[C@H](CO)Nc1nc(NCc2ccccc2)c2ncn(C(C)C)c2n1 [Roscovitine, (R)-roscovitine]
  progressive neurodegeneration after TBI: reduced progressive neurodegeneration in the hippocampus and cortex
